The source of these data is BindingDB's records for patent US12110278 (Yale University, 2024).

By UniProt entry, the sequences of proteins in these tests, tags left out. Residues count along the entry.
UniProt O60674, 536-812 W659A/W777A/F794H: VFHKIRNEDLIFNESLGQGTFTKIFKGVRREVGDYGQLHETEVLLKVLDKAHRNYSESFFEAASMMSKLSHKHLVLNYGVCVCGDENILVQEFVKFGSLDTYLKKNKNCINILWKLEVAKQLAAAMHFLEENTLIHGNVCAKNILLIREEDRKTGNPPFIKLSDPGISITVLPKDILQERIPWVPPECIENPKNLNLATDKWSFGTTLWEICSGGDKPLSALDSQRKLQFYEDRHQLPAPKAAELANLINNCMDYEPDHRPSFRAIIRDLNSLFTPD

This experiment addresses T1, Tyrosine-protein kinase JAK2 [536-812,W659A,W777A,F794H] (Homo sapiens, UniProt O60674, W659A/W777A/F794H).
T1 construct: 536-812
The experiment is described as follows: Fluorescence Polarization (FP) Assay.

Regarding `COC(=O)COc1ccc(NC(=O)n2nc(Nc3ccc(S(N)(=O)=O)cc3)nc2N)cc1` [US12110278, Compound 8], the equilibrium dissociation constant (Kd) stood at 1900 nM.
